The experiment concerns the target Neuropeptide Y receptor type 2 (Homo sapiens, UniProt P49146). In words: Displacement of [125I]-PYY from human NPYY2 receptor. Background: Displacement assays read how much labelled ligand stays bound in the presence of the test substance.

Sequences of proteins named here, by UniProt entry; tags and fusion partners are left off.
UniProt P49146, whole entry: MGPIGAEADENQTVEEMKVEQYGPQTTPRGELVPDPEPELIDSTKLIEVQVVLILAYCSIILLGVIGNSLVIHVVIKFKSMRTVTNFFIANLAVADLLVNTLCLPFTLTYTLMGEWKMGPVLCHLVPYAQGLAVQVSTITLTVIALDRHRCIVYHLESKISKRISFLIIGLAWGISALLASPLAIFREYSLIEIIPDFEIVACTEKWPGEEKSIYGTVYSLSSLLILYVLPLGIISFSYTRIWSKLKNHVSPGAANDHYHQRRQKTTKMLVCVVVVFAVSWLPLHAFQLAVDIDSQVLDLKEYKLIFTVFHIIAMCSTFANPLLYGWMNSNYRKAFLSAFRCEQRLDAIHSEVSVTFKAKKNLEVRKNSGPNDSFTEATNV

Experimental findings from ChEMBL document CHEMBL3102719, “Ligands of the neuropeptide Y Y2 receptor” (Bioorg Med Chem Lett, 2014) are described below.

Only a part of the results on these compounds is given; other tests are left out.

As a reminder, the IC50 is the midpoint of a concentration-inhibition curve. High values mean lower potency, low ones higher potency. In turn, `CC(=O)N1CCc2ccc(N(C(=O)/C=C/c3ncc[nH]3)C3CCN(Cc4ccccc4)CC3)cc21` showed an IC50 of 17 µM.
